Source: PubChem BioAssay (Tox21)
Several values for one entry are separate records, joined by “and”; a condition that tells them apart may be missing. Equal values may be shown once. This is a selection; strong and weak results do not stand in their true shares. Inconclusive results are not listed. Activity calls are given as the source filed them. Calls follow the shape of the full dose curve.

By UniProt entry, the sequences of proteins in these tests, tags left out. Where a name states a change or a piece, a line headed by the entry shows the natural chain unless it says otherwise.
UniProt P11473: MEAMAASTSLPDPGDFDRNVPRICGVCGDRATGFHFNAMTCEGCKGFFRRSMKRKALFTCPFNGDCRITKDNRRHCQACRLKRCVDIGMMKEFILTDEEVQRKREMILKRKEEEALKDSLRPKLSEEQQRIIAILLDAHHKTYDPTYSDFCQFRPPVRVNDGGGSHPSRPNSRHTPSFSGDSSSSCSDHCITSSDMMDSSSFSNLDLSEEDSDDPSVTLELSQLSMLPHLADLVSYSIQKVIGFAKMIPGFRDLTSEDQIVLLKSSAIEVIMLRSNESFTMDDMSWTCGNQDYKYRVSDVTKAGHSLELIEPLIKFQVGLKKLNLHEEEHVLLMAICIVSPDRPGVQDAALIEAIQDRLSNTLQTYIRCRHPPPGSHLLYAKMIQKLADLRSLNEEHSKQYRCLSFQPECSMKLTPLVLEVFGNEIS

Target: Vitamin D3 receptor (Homo sapiens) (UniProt P11473)
Assay: qHTS assay to identify small molecule agonists of the vitamin D receptor (VDR) signaling pathway (AID 743222)
Settings: HEK293T VDR-UAS-bla, beta-lactamase FRET ratio, 16 h; at 63.5 µM (top of the series) unless noted
From the text: National Center for Advancing Translational Sciences [NCATS]
NIH Chemical Genomics Center [NCGC]
U.S. Environmental Protection Agency [EPA]
National Institutes of Environmental Health Sciences [NIEHS]
National Toxicology Program [NTP]
U.S. Food and Drug Administration [FDA]
The vitamin D receptor (VDR), a member of nuclear hormone receptor superfamily, plays a critical role in calcium homeostasis and bone metabolism. It is also involved in cell differentiation and growth, and thrombogenicity.
Tox21 Assay Protocol Summary:
VDR-bla cells were dispensed at 2,000 cells/6 uL/well into black wall/clear-bottom 1536-well plates using a Multidrop Combi (Thermo Fisher Scientific, Waltham, MA) dispenser. After the assay plates were incubated at a 37C and 5% CO2 for 4 h, 23 nL of compounds dissolved in DMSO, positive controls or DMSO only was transferred to the assay plate by a Pintool station (Kalypsys, San Diego, CA). The plates were incubated at 37C and 5% CO2 for 16 h. After 1 uL of LiveBLAzerTM B/G FRET substrate was added using a Bioraptr Flying Reagent Dispenser (FRD) workstation (Beckman Coulter, Indianapolis, IN, USA), the plates were incubated at room temperature for 2 h, and fluorescence intensity was measured by an Envision plate reader (PerkinElmer, Shelton, CT).
% is scaled to controls: 0 for no effect and ±100 for the full control effect.

Compound	activation
CN(N=O)C(=N)N[N+](=O)[O-]	inactive: -4.42%
CCOC(=O)Cl	inactive: 2.42%
CCOP(=S)(CC)Sc1ccccc1 (stereo not drawn)	inactive: 1.35%
CN(C(=O)Cc1cccc2occc12)[C@H]1CC[C@@]2(CCCO2)C[C@@H]1N1CCCC1	inactive: 5.25%
O=P(Cl)(Cl)c1ccccc1	inactive: -4.09%
CC(C)OP(=S)(OC(C)C)SCCNS(=O)(=O)c1ccccc1	inactive: -17%
CCCCO[P+](=O)OCCCC	inactive: 1.47%
COP(=S)(Cl)OC	inactive: 1.15% [at 81.1 µM]
O=[As]c1ccccc1 (stereo not drawn)	inactive: -0.784%
ClP(Cl)c1ccccc1	inactive: 0.606%
NC(=O)Nc1ccc([As](=O)(O)O)cc1	inactive: 5.69% and inactive: 2.18%
O=[P+](Oc1ccccc1)Oc1ccccc1	inactive: 0.224%
O=[p+]1oc2ccccc2c2ccccc21 (stereo not drawn)	inactive: -6.09%
CCNC(C)Cc1ccc2c(c1)OCO2 (stereo not drawn)	inactive: -12.4% [at 81.1 µM]
CCCCC(CC)CO[P+](=O)OCC(CC)CCCC (stereo not drawn)	inactive: -4.17%
CN(C(=O)Cc1ccc(Cl)c(Cl)c1)[C@H]1CC[C@@]2(CCCO2)C[C@@H]1N1CCCC1	inactive: 0%
COC(=O)Cl	inactive: -2.24%
O=P(Cl)(Oc1ccccc1)Oc1ccccc1	inactive: 0.203%
